Results as given in patent US20050238734A1, “Detection of nitrosylated proteins” (University of Vermont and State Agricultural College, priority 2004, published 2005).

Assay: Reduction of GSSG to GSH by ascorbate in HENS buffer, analysed by HPLC
Format: physicochemical
Settings: for % GSSG reduced 10 mM asc. / GSH μM 10 mM asc.: 10 mM ascorbate; for % GSSG reduced 20 mM asc. / GSH μM 20 mM asc.: 20 mM ascorbate
Procedure: Various solution of GSSG were treated in HENS buffer with either 10 mM or 20 mM ascorbate (“asc”), then analyzed for its potential reduction to GSH by HLPC. […] Thus, the ascorbate-dependent SH biotinylation was believed to be primarily due to SNO, with only a minor contribution of disulfides.

oxidized glutathione [GSSG]
fraction of GSSG reduced (10 mM or 20 mM ascorbate, HENS buffer, summary of Table 1): less than 0.09% | % GSSG reduced 10 mM asc. (GSSG 100 μM): 0.01% | GSH μM 10 mM asc. (GSSG 100 μM, HENS buffer): 0.11 µM | % GSSG reduced 20 mM asc. (GSSG 100 μM): 0.01% | GSH μM 20 mM asc. (GSSG 100 μM, HENS buffer): 0.11 µM | % GSSG reduced 10 mM asc. (GSSG 500 μM): 0.08% | GSH μM 10 mM asc. (GSSG 500 μM, HENS buffer): 0.96 µM | % GSSG reduced 20 mM asc. (GSSG 500 μM): 0.14% | GSH μM 20 mM asc. (GSSG 500 μM, HENS buffer): 1.29 µM | % GSSG reduced 10 mM asc. (GSSG 1000 μM): 0.09% | GSH μM 10 mM asc. (GSSG 1000 μM, HENS buffer): 1.53 µM | % GSSG reduced 20 mM asc. (GSSG 1000 μM): 0.17% | GSH μM 20 mM asc. (GSSG 1000 μM, HENS buffer): 2.27 µM
